Assay results from patent US20230286947A1, “COMPLEMENT FACTOR B INHIBITOR, AND PHARMACEUTICAL COMPOSITION, PREPARATION METHOD AND USE THEREOF” (SHANGHAI MEIYUE BIOTECH DEVELOPMENT CO. LTD, priority 2020, published 2023).

Chains of the proteins cited; added tags and fusions are not shown. Residues count along the entry.
UniProt P00751, 26-764 limits assumed: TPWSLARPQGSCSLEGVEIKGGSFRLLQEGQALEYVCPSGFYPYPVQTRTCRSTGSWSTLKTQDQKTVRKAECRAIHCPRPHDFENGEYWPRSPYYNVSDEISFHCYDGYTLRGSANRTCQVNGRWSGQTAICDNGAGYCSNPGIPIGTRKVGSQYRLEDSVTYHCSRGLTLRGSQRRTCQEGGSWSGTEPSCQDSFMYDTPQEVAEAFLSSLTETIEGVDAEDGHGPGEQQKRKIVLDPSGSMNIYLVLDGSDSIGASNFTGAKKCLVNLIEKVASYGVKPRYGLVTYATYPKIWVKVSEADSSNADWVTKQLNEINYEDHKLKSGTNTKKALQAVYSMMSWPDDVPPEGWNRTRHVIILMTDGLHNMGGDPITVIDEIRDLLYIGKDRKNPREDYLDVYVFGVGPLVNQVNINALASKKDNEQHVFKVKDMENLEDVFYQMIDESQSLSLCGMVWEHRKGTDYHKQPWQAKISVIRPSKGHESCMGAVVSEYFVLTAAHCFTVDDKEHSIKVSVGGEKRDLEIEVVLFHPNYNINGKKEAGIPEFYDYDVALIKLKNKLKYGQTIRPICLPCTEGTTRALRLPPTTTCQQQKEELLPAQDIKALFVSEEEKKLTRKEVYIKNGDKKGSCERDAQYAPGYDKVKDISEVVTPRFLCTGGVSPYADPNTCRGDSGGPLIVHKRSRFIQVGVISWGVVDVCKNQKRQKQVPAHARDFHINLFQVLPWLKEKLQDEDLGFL

Biological target: complement factor B in human serum (Homo sapiens, UniProt P00751)
Assay: Complement hemolytic activity assay (rabbit erythrocytes, normal human serum)
Details: read-out: Hemolysis IC50, 37° C.

`COc1cc(C)c2[nH]ccc2c1CN1CCC2(CCC2OC)CC1c1ccc(C(=O)O)cc1` (stereo not shown) was tested, and the IC50 was 674 nM.
